# Values quoted from earlier work as cited in paper PMC5897741, “Thermokinetic profile of NDM-1 and its inhibition by small carboxylic acids” (Bioscience Reports, 2018).
# Legend:
# Conditions in all cases: 100 μM compound; cited from earlier work
# [1] = tested on: IMP-1
# [2] = tested on: BcII
# [3] = tested on: VIM-4
# [4] = tested on: VIM-2
smiles,measurement,setting,value
"O=C(O)c1cccc(C(=O)O)n1 [Compound 7, pyridine-2,6-dicarboxylic acid]",enzyme activity towards imipenem,[1],2%
same,effect on enzyme activity,[2],barely any effect
same,effect on enzyme activity,[3],barely any effect
same,effect on enzyme activity,[4],barely any effect
